According to patent publication US10202378B2, “Therapeutic compounds and uses thereof” (GENENTECH, INC., priority 2015, dated 2019):

Columns and labels:
TAF1-BD1 = TAF1-BD1 (Homo sapiens, UniProt P21675); experiment: TAF1-BD1 TR-FRET Binding Assay; settings: read-out: TAF1-BD1 HTRF IC50
Protocol: IC50 Measurements for Inhibitors Using TAF1-BD1 TR-FRET Binding Assay
His/Flag epitope tagged TAF1-BD11381-1497 was cloned, expressed, and purified to homogeneity. TAF1-BD binding and inhibition was assessed by monitoring the engagement of a biotinylated small molecule compound 1000 with the target using the TR-FRET assay technology (Perkin-Elmer). Specifically, in a 384 well ProxiPlate, TAF1-BDI (0.08 uM final) in 50 mM HEPES (pH 7.5; final), 50 mM NaCl (final), 1 mM TCEP (final), 0.1 mg/mL BSA (final), and 0.069 mM Brij-35 (final) was added either in the presence of DMSO (final 0.2% DMSO) or compound dilution series in DMSO. After a 10 minute incubation at room temperature, biotin-ligand (0.08 uM final) was added. After 10 minutes incubation at room temperature, a mixture Eu-W1024 Anti-6×His antibody (Perkin Elmer ADO 110) and SureLight™ Streptavidin-Allophycocyanin (SA-APC, Perkin Elmer CR130-100) were added to final concentrations of 0.2 nM antibody and 0.05 uM SA-APC, respectively. After forty minutes of equilibration at room temperature, the plates were read on an Envision instrument and IC50s calculated using a four parameter logistic model (XLFIT).

TAF1-BD2 = TAF1-BD2 (Homo sapiens, UniProt P21675); experiment: TAF1-BD2 TR-FRET Binding Assay; settings: read-out: TAF1-BD2 HTRF IC50
Protocol: IC50 Measurements for Inhibitors Using TAF1-BD2 TR-FRET Binding Assay
His/Flag epitope tagged TAF1-BD21504-1635 was cloned, expressed, and purified to homogeneity. TAF1-BD2 binding and inhibition was assessed by monitoring the engagement of a biotinylated small molecule compound 1000 with the target using the TR-FRET assay technology (Perkin-Elmer). Specifically, in a 384 well ProxiPlate, TAF1-BD2 (0.012 uM final) in 50 mM HEPES (pH 7.5; final), 50 mM NaCl (final), 1 mM TCEP (final), 0.1 mg/mL BSA (final), and 0.069 mM Brij-35 (final) was added either in the presence of DMSO (final 0.2% DMSO) or compound dilution series in DMSO. After a 10 minute incubation at room temperature, biotin-ligand (0.04 uM final) was added. After 10 minutes incubation at room temperature, a mixture Eu-W1024 Anti-6×His antibody (Perkin Elmer AD0110) and SureLight™ Streptavidin-Allophycocyanin (SA-APC, Perkin Elmer CR130-100) were added to a final concentration of 0.2 nM antibody and 0.025 uM SA-APC, respectively. After forty minutes of equilibration at room temperature, the plates were read on an Envision instrument and IC50s calculated using a four parameter logistic model (XLFIT).

With `CCOC(=O)c1c(C)[nH]c2c(=O)n(C)cc(C#C[C@](C)(O)c3cc(C)on3)c12` [Example 34, ethyl 4-[(3S)-3-hydroxy-3-(5-methylisoxazol-3-yl)but-1-ynyl]-2,6-dimethyl-7-oxo-1H-pyrrolo[2,3-c]pyridine-3-carboxylate] as the molecule, how does the IC50 (TAF1-BD1) read?
Its IC50 is 595 nM.

And the IC50 (TAF1-BD2)?
The IC50 was 286 nM.

For `CCOC(=O)c1c(C)[nH]c2c(=O)n(C)cc(C#CC(C)(O)c3ccccc3)c12` (stereo not shown) [Example 80, ethyl 4-(3-hydroxy-3-phenyl-but-1-ynyl)-2,6-dimethyl-7-oxo-1H-pyrrolo[2,3-c]pyridine-3-carboxylate], which IC50 (TAF1-BD1) is on record?
The IC50 was 243 nM.

What about the IC50 (TAF1-BD2) of the same molecule?
The IC50 was 22.6 nM.

With `CCOC(=O)c1c(C)[nH]c2c(=O)n(C)cc(C#CC(O)(c3cc(C)cc(O)c3)C(F)(F)F)c12` (stereo not shown) [Example 85, ethyl 2,6-dimethyl-7-oxo-4-[4,4,4-trifluoro-3-hydroxy-3-(3-hydroxy-5-methyl-phenyl)but-1-ynyl]-1H-pyrrolo[2,3-c]pyridine-3-carboxylate] as the molecule, how does the IC50 (TAF1-BD1) read?
Its IC50 is 395 nM.

What about the IC50 (TAF1-BD2) of the same molecule?
The IC50 was 63.7 nM.

Which results are given for `Cc1[nH]c2c(=O)n(C)cc(C#CC(C)(O)C3CC3)c2c1C(=O)OCc1cccc(CO)c1` (stereo not shown) [Example 106, [3-(hydroxymethyl)phenyl]methyl 4-(3-cyclopropyl-3-hydroxy-but-1-ynyl)-2,6-dimethyl-7-oxo-1H-pyrrolo[2,3-c]pyridine-3-carboxylate]?
IC50 (TAF1-BD1): 166 nM; IC50 (TAF1-BD2): 37.2 nM

Which results are given for `Cc1[nH]c2c(=O)n(C)cc(C#CC(C)(C)O)c2c1C(=O)OCc1cccnc1` [Example 114, 3-pyridylmethyl 4-(3-hydroxy-3-methyl-but-1-ynyl)-2,6-dimethyl-7-oxo-1H-pyrrolo[2,3-c]pyridine-3-carboxylate]?
IC50 (TAF1-BD1): 304 nM; IC50 (TAF1-BD2): 48.3 nM

For `Cc1ccc(COC(=O)c2c(C)[nH]c3c(=O)n(C)cc(C#CC(C)(C)O)c23)cc1` [Example 117, p-tolylmethyl 4-(3-hydroxy-3-methyl-but-1-ynyl)-2,6-dimethyl-7-oxo-1H-pyrrolo[2,3-c]pyridine-3-carboxylate], which IC50 (TAF1-BD1) is on record?
The IC50 was 128 nM.

What about the IC50 (TAF1-BD2) of the same molecule?
The IC50 was 39.7 nM.

With `Cc1ccccc1COC(=O)c1c(C)[nH]c2c(=O)n(C)cc(C#CC(C)(O)CO)c12` (stereo not shown) [Example 129, o-tolylmethyl 4-(3,4-dihydroxy-3-methyl-but-1-ynyl)-2,6-dimethyl-7-oxo-1H-pyrrolo[2,3-c]pyridine-3-carboxylate] as the molecule, how does the IC50 (TAF1-BD1) read?
The IC50 was 274 nM.

What about the IC50 (TAF1-BD2) of the same molecule?
The IC50 was 41.3 nM.

What does the source list for `Cc1[nH]c2c(=O)n(C)cc(C#CC(C)(C)O)c2c1C(=O)OC(C)C` [Example 131, isopropyl 4-(3-hydroxy-3-methyl-but-1-ynyl)-2,6-dimethyl-7-oxo-1H-pyrrolo[2,3-c]pyridine-3-carboxylate]?
IC50 (TAF1-BD1): 360 nM; IC50 (TAF1-BD2): 48.3 nM

What does the source list for `Cc1[nH]c2c(=O)n(C)cc(C#CC(C)(C)O)c2c1C(=O)OCC1CCN(C)CC1` [Example 143, (1-methyl-4-piperidyl)methyl 4-(3-hydroxy-3-methyl-but-1-ynyl)-2,6-dimethyl-7-oxo-1H-pyrrolo[2,3-c]pyridine-3-carboxylate]?
IC50 (TAF1-BD1): 1870 nM; IC50 (TAF1-BD2): 74.8 nM

With `CCCC(C)(C)OC(=O)c1c(C)[nH]c2c(=O)n(C)cc(C#CC(C)(C)O)c12` [Example 147, 1,1-dimethylbutyl 4-(3-hydroxy-3-methyl-but-1-ynyl)-2,6-dimethyl-7-oxo-1H-pyrrolo[2,3-c]pyridine-3-carboxylate] as the molecule, how does the IC50 (TAF1-BD1) read?
Its IC50 is 331 nM.

And the IC50 (TAF1-BD2)?
The IC50 was 38.8 nM.

What does the source list for `Cc1[nH]c2c(=O)n(C)cc(C#CC(C)(C)O)c2c1C(=O)OCC1CCCCC1` [Example 153, cyclohexylmethyl 4-(3-hydroxy-3-methyl-but-1-ynyl)-2,6-dimethyl-7-oxo-1H-pyrrolo[2,3-c]pyridine-3-carboxylate]?
IC50 (TAF1-BD1): 85.3 nM; IC50 (TAF1-BD2): 22.6 nM

What does the source list for `Cc1[nH]c2c(=O)n(C)cc(C#CC(C)(C)O)c2c1C(=O)OC1CCCCC1` [Example 159, cyclohexyl 4-(3-hydroxy-3-methyl-but-1-ynyl)-2,6-dimethyl-7-oxo-1H-pyrrolo[2,3-c]pyridine-3-carboxylate]?
IC50 (TAF1-BD1): 295 nM; IC50 (TAF1-BD2): 36.9 nM

How did the IC50 (TAF1-BD1) turn out when `Cc1[nH]c2c(=O)n(C)cc(C#CC(O)(c3ccccc3)C(F)(F)F)c2c1-c1nnc(CN(C)C)o1` (stereo not shown) [Example 186, 3-[5-[(dimethylamino)methyl]-1,3,4-oxadiazol-2-yl]-2,6-dimethyl-4-(4,4,4-trifluoro-3-hydroxy-3-phenyl-but-1-ynyl)-1H-pyrrolo[2,3-c]pyridin-7-one] was run?
Its IC50 is 484 nM.

And the IC50 (TAF1-BD2)?
Its IC50 is 68.7 nM.

For `Cc1[nH]c2c(=O)n(C)cc(C#CC(O)(c3ccccc3)C(F)(F)F)c2c1-c1nnc(C(C)C)o1` (stereo not shown) [Example 189, 3-(5-isopropyl-1,3,4-oxadiazol-2-yl)-2,6-dimethyl-4-(4,4,4-trifluoro-3-hydroxy-3-phenyl-but-1-ynyl)-1H-pyrrolo[2,3-c]pyridin-7-one], which IC50 (TAF1-BD1) is on record?
Its IC50 is 492 nM.

What about the IC50 (TAF1-BD2) of the same molecule?
Its IC50 is 49.5 nM.
